Screens: PubChem, several laboratories
HDAC3 inhib: HDAC3 deacetylase inhibitors, primary screen, biochemical, fluorescence, cell-free homogeneous; 0.15% of 320,000 active; Histone deacetylase 3 (Homo sapiens), O15379; inhibition, % at 8.3 µM; recombinant HDAC3, fluorogenic peptide/trypsin coupled; in the data active means inhibition above about 26%, passing the limit was not always enough; inconclusive means no clear call, values can overlap the other calls
NALP1 inh: NALP1 inflammasome inhibitors in reconstituted yeast, colorimetric, S. cerevisiae, triplicate retest | S. cerevisiae NALP1/ASC/caspase-1 growth, X-gal OD620, 72 h | inhibition, % at 10 µM | 0.61% of 280,000 active; in the data active means inhibition mostly above about 24%, no sharp cut-off; inactive means mostly below about 32%
MC4R barr agon: MC4R agonists recruiting beta-arrestin, primary screen, cell-based, luminescence, agonist arm of biased-ligand search; activation, % at 8.9 µM; U2OS MC4R beta-arrestin complementation; percent of melanotan II response, DMSO zero; Melanocortin receptor 4 (Homo sapiens), P32245; 0.98% of 360,000 active; AID 540308, 2011;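 active means activation above a per-plate cutoff, the mean activation of sample wells on that plate plus 3 SD, cut at about 8% in these data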
MC4R antag cAMP: MC4R antagonists of cAMP signaling, primary screen, cell-based, TR-FRET, antagonist arm of biased-ligand search | MC4R-expressing cells, MTII-stimulated cAMP, LANCE TR-FRET | 0.48% of 360,000 active | AID 540295, 2011 | inhibition, % at 6.5 µM;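 active means inhibition above its plate's cutoff, the mean of tested wells on that plate plus 3 SD, cut at about 29% in these data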
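material = U2OS cells stably expressing human melanocortin 4 receptor (MC4R) | also added = Melanotan II challenge | dosing = single nominal compound dose of 6.5 µM | detection = TR-FRET with Eu-cAMP and labeled anti-cAMP, 671 nm | replication = singlicate | timing = compound 30 min, challenge 1 h, detection 1 h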
ALR H2O2 inh: inhibitors of human sulfhydryl oxidase ALR; inhibition, % (no concentration beside the values); AID 485317; purified ALR, DTT oxidation, H2O2 HRP-luminol luminescence; 290,000 tested, 3.8% active; P55789;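 active means mean and each replicate at 75% or more; inconclusive means only one of the two met; inactive means neither met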;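 further: stock transfer was 7.5 nL into about 7.5 µL; 0% = neutral wells and 100% = wells with inactivated enzyme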
Yeast UUG start: yeast start codon fidelity modulation. S. cerevisiae UUG-firefly luciferase reporter, luminescence/redox ratio. activity score, % at 18.7 µM. 0.13% of 350,000 active;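 active = replicate mean at a twofold rise or more, about +100% in these data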;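 also: firefly luciferase made from a UUG start codon reports start codon fidelity; reporter light over untreated wells divided by growth signal over untreated wells; some hits fall short of that in this replicate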
A number is an active result; i = inactive; ? = inconclusive; nt = no result. Most compounds without a hit are left out; they make up all but 4.2% or so of the library.

Sequences of proteins named here, by UniProt entry; tags and fusion partners are left off.
Melanocortin receptor 4 (Homo sapiens), P32245, UniProt P32245, whole entry, looked up: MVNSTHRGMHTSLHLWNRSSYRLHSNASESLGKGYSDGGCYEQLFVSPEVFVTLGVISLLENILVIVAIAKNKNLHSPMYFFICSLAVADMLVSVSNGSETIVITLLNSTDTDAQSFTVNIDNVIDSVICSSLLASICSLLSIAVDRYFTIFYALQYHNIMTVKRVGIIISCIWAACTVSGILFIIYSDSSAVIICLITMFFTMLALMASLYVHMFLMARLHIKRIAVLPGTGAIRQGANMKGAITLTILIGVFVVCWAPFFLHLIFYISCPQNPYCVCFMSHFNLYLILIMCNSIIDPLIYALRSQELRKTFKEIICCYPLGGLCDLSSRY

SMILES | HDAC3 inhib | NALP1 inh | MC4R barr agon | MC4R antag cAMP | ALR H2O2 inh | Yeast UUG start
O=C(CNc1ccc2ccccc2c1)NNC1=NCCC1 | ? | i | i | i | 84 | nt
O=C(CN1C(=O)CCC1=O)NNc1ccc2ccccc2c1 | i | i | i | i | 98 | i
CC(=O)Nc1ccc(NC(=O)CCN2C(=O)c3ccccc3C2=O)cc1 | i | 44 | i | i | i | i
CC(=O)Nc1ccc(NC(=O)CCCN2C(=O)c3ccccc3C2=O)cc1 | i | i | i | i | i | i
Cc1noc(NS(=O)(=O)c2ccc(NC(=O)CSc3nnc(-c4ccccc4)n3C3CCCCC3)cc2)c1C | i | i | i | i | 98 | i
CCOC(=O)CNC(=O)CSc1nc(C)cc(C)c1C#N | i | 37 | i | i | i | i
Cc1cc(C)c(C#N)c(SCC(=O)Nc2ccc(S(=O)(=O)Nc3onc(C)c3C)cc2)n1 | i | i | i | i | 96 | i
COc1ccc(C#Cc2ccc3c(c2)O[C@H](CN(C)S(=O)(=O)c2ccccc2F)[C@@H](C)CN([C@@H](C)CO)S3(=O)=O)cc1 | nt | nt | nt | nt | nt | i
COCC(=O)Nc1ccc2c(c1)[C@H]1C[C@@H](CC(=O)NCc3ccccn3)O[C@H](CO)[C@H]1O2 | nt | nt | nt | nt | nt | i
C[C@H]1CN([C@@H](C)CO)C(=O)c2cc(-c3ccncc3)cnc2O[C@H]1CN(C)C(=O)NC1CCCC1 | nt | nt | nt | nt | nt | i
Cc1noc(NS(=O)(=O)c2ccc(NC(=O)CCN3C(=O)c4ccccc4C3=O)cc2)c1C | i | i | i | i | 94 | nt
Cc1noc(NS(=O)(=O)c2ccc(NC(=O)c3ccc(N4C(=O)c5ccccc5C4=O)cc3)cc2)c1C | i | i | i | i | i | nt
Cc1noc(NS(=O)(=O)c2ccc(NC(=O)/C=C/c3ccc(Br)cc3)cc2)c1C | i | i | i | i | 91 | i
O=C(Cc1ccncc1)NCC[C@@H]1CC[C@H](NC(=O)Nc2cccc(F)c2)[C@H](CO)O1 | nt | nt | nt | nt | nt | i
CCN(CC)c1ccc(C=C2C(=O)OC3(CCCCC3)OC2=O)cc1 | i | i | i | i | ? | nt
CCN(CC)c1ccc(/C=C2/C(=O)c3ccc(C(=O)O)cc3C2=O)cc1 | i | i | i | i | 98 | nt
C[C@@H]1CN([C@H](C)CO)C(=O)Cc2cc(NS(=O)(=O)c3ccc(Cl)cc3)ccc2O[C@@H]1CN(C)C(=O)NC1CCCCC1 | nt | nt | nt | nt | nt | i
Cc1ccc2c(c1)Oc1ccc(NC(=O)CCl)cc1C(=O)N2 | i | i | i | i | 93 | nt
O=C(C[C@@H]1C[C@@H]2c3cc(NS(=O)(=O)c4ccc(F)cc4)ccc3O[C@@H]2[C@H](CO)O1)NCc1ccc(-c2ccccc2)cc1 | nt | nt | nt | nt | nt | i
O=C(Oc1coc(CSc2ncccn2)cc1=O)c1ccco1 | i | i | i | i | ? | nt
O=C(Oc1ccc(Cl)c2cccnc12)c1cccc([N+](=O)[O-])c1 | i | 58 | i | i | nt | nt
O=C(Oc1c(Cl)cc(Cl)c2cccnc12)c1cccc([N+](=O)[O-])c1 | i | i | i | i | i | nt
O=C(Oc1coc(CSc2ncccn2)cc1=O)c1cccc([N+](=O)[O-])c1 | i | i | i | i | 97 | nt
CSc1ccc(-c2nc(CSCC(=O)NCCCN3CCOCC3)c(C)o2)cc1 | i | i | i | i | nt | nt
Cc1ccc(-c2nc(CSCC(=O)NCCN3CCN(Cc4ccccc4)CC3)c(C)o2)cc1 | i | i | i | i | 99 | i
SMILES | HDAC3 inhib | NALP1 inh | MC4R barr agon | MC4R antag cAMP | ALR H2O2 inh | Yeast UUG start
Cc1ccc(-c2nc(CSCC(=O)NCCCN3CCOCC3)c(C)o2)cc1 | i | i | i | i | 97 | i
CCN1CCN(CCNC(=O)CS(=O)(=O)Cc2nc(-c3ccc(C)cc3)oc2C)CC1 | i | i | i | i | i | i
Cc1noc(C)c1NC(=O)Nc1ccc2c(c1)C(=O)N([C@@H](C)CO)C[C@H](C)[C@H](CN(C)C)OCCCC[C@@H](C)O2 | nt | nt | nt | nt | nt | i
O=c1[nH]c(/C=C\c2cccs2)nc(O)c1[N+](=O)[O-] | i | i | i | i | i | i
O=c1[nH]c(/C=C\c2ccc(O)cc2)nc(O)c1[N+](=O)[O-] | i | i | i | i | 97 | i
C=CCc1cc(/C=C/c2nc(O)c([N+](=O)[O-])c(=O)[nH]2)cc(OC)c1O | i | i | i | i | 82 | nt
CCOc1cc(/C=C\c2nc(O)c([N+](=O)[O-])c(=O)[nH]2)ccc1OC(C)C | i | i | i | i | i | i
CCCNC(=O)C[C@H]1C[C@H]2c3cc(NS(C)(=O)=O)ccc3O[C@H]2[C@@H](CO)O1 | nt | nt | nt | nt | nt | i
CN(C)C(=O)C[C@H]1C[C@@H]2c3cc(NC(=O)Nc4ccccc4F)ccc3O[C@@H]2[C@H](CO)O1 | nt | nt | nt | nt | nt | i
CN1CCN(C(=O)C[C@H]2CC[C@@H](NS(=O)(=O)c3cccc(F)c3)[C@H](CO)O2)CC1 | nt | nt | nt | nt | nt | i
COCCCNC(=O)CS(=O)Cc1nc(-c2ccccc2C)oc1C (stereo not given) | i | i | i | i | 99 | i
CCOc1ccc(CCNC(=O)CS(=O)Cc2nc(-c3ccccc3Cl)oc2C)cc1OCC (stereo not given) | i | i | i | i | 99 | i
COc1ccc(OC)c(CCNC(=O)CS(=O)(=O)Cc2nc(-c3ccccc3Cl)oc2C)c1 | i | i | i | i | i | i
COCCNC(=O)CS(=O)Cc1nc(-c2ccc(Cl)cc2)oc1C (stereo not given) | i | i | i | i | nt | i
Cc1ccc(CCNC(=O)CS(=O)Cc2nc(-c3ccccc3Cl)oc2C)cc1 (stereo not given) | i | i | i | i | 99 | i
CCC(=O)N[C@H]1CC[C@@H](CC(=O)OC)O[C@@H]1CO | nt | nt | nt | nt | nt | i
CCCCCCCCCCCC1=C(O)C(=O)C=C(O)C1=O | i | nt | 16 | i | i | i
COC1=CC(=O)C(O)=C(CCCCCCC/C=C/CCCCCCCC2=C(O)C(=O)C=C(OC)C2=O)C1=O | i | nt | i | i | i | i
C[C@@H]1CN([C@@H](C)CO)C(=O)c2cc(NS(=O)(=O)c3cn(C)cn3)ccc2O[C@H]1CN(C)S(=O)(=O)c1cccs1 | nt | nt | nt | nt | nt | i
Cc1noc(C)c1CSc1nc2ccccc2s1 | i | i | i | i | nt | i
c1ccc(NCCSc2nc3ccccc3s2)cc1 | nt | nt | i | i | nt | nt
CNc1nnc(CSc2nc3ccccc3s2)s1 | i | i | i | i | 99 | i
CCS(=O)CCSc1nc2ccccc2s1 (stereo not given) | i | i | i | i | 99 | i
c1csc(CSc2nc3ccccc3s2)c1 | i | i | i | i | 94 | nt
CCC(=O)N1C[C@H](C)[C@@H](OC)CN(C)C(=O)c2ccc(NC(=O)Nc3cccc(F)c3)cc2OC[C@H]1C | nt | nt | nt | nt | nt | i
CCOC(=S)SCC(=O)Nc1ncc(C)s1 | i | i | i | i | 99 | nt
